## Measured affinities in a library of Ab-14 heavy chain variants

From the AlphaSeq antibody data of Engelhart et al. 2022 (doi:10.1038/s41597-022-01779-4), copy in the FLAb collection.

The target is the same throughout: PDVDLGDISGINAS, from the HR2 region of SARS-CoV-2 spike.

Each scFv is VH, a (GGGGS)3 linker, VL, as in the parent Ab-14, and differs from it in the CDRs of the heavy chain only.
VH: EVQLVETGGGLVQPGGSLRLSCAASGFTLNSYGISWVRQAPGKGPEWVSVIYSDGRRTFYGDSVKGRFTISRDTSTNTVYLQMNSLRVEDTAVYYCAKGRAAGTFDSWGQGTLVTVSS
VL: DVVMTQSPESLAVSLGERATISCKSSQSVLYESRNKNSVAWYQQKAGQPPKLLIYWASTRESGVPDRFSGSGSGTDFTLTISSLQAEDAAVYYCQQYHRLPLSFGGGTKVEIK

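In library AAYL49, one, two or three CDR residues were substituted; doubles and triples were drawn at random. AlphaSeq pools MATa yeast showing the antibodies with MATalpha yeast showing the peptide. The frequency of each diploid, read from paired DNA barcodes, reflects how well the two displayed proteins bind. Each replicate has its own calibration line, from reference interactions of the BCL2 family. Each pool was mated in three replicate cultures.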

Changes read parent residue, position, new residue, counted from the first residue of the VH shown. This list gathers variants with a substitution at Y60 (VH, numbered from residue 1). Affinities are written as log10 Kd with Kd in nM; a lower number is a better binder. Replicates are averaged; those with no signal do not enter the mean. "ND" means that the variant was in the library but no mating with the target was seen in that replicate; the authors take this as a sign of poor binding, and no number exists. Entries are sorted by rising average, undetected variants last. In this assay the parent's reference entry averaged 0.65; its copy inside this library read 4.11 (one replicate of three). Background: pairings of library AAYL49 with three empty control strains gave a value in 15% of cases (median 4.06, 5th percentile 2.83). Values in that range, when seen in few replicates, are hard to tell from nonspecific mating.

Variant R56A+Y60A+G61T showed 2.00, 2.06, 1.93 (mean 1.99).
Variant G26A+R56N+Y60L showed ND, 2.02, ND.
Variant G26A+Y60A+G61P showed ND, 2.41, ND.
Variant Y32K+Y60I+D106M showed ND, 2.44, ND.
Variant Y60H showed 2.45, 2.42, 2.46 (mean 2.44).
Variant S31G+Y60M+F105C showed 2.69, ND, ND.
Variant N30Q+Y60E+F105Q showed ND, 2.92, ND.
Variant L29D+Y60T+D62P showed ND, 3.03, ND.
Variant G26E+I51S+Y60L showed ND, 3.11, ND.
Variant Y60F+G103E+F105K showed 3.12, 3.23, ND (mean 3.18).
Variant T28C+R56N+Y60H showed 3.37, 3.03, 3.47 (mean 3.29).
Variant Y60A+S63Q+T104Q showed 4.16, 2.88, 3.41 (mean 3.48).
Variant Y60D+R100H+D106S showed 3.56, ND, ND.
Variant R56Q+Y60S showed 3.61, ND, 3.52 (mean 3.57).
Variant Y60K+V64Q+A102C showed 3.84, ND, 3.50 (mean 3.67).
Variant T28I+V50C+Y60P showed ND, ND, 3.71.
Variant V50G+I51R+Y60F showed 4.52, 3.15, ND (mean 3.84).
Variant Y60G+G61E showed ND, ND, 4.01.
Variant G55A+Y60A+T104I showed 3.17, ND, 4.91 (mean 4.04).
Variant Y60P+G103N+S107I showed ND, 4.26, ND.
Variant Y60H+K65A+S107H showed ND, 4.35, ND.
Variant G26H+Y60K showed ND, 3.49, 5.22 (mean 4.35).
Variant S35T+Y52P+Y60C showed ND, 4.88, ND.
Variant S35P+S53C+Y60G showed ND, 4.88, ND.
Variant F59Q+Y60L+D62E showed 4.90, ND, ND.
Variant Y32L+I34L+Y60V showed 5.46, ND, 5.13 (mean 5.29).
Variant T58R+Y60A+T104L showed ND, ND, ND.
Variant G26H+G33C+Y60Q showed ND, ND, ND.
Variant N30V+Y60I+S63A showed ND, ND, ND.
Variant Y32H+Y60F+R100V showed ND, ND, ND.
Variant Y60W+A101I showed ND, ND, ND.
Variant N30V+Y60C+D106P showed ND, ND, ND.
Variant G33S+Y60M+T104W showed ND, ND, ND.
Variant S35W+Y60F+V64P showed ND, ND, ND.
Variant S31C+G33S+Y60H showed ND, ND, ND.
Variant I51V+Y60L+S63W showed ND, ND, ND.
Variant N30Y+S31F+Y60D showed ND, ND, ND.
Variant R56K+Y60R+D62C showed ND, ND, ND.
Variant S31L+R57W+Y60A showed ND, ND, ND.
Variant R57E+Y60V+D62S showed ND, ND, ND.
Variant N30R+G55Q+Y60A showed ND, ND, ND.
Variant R57G+Y60F showed ND, ND, ND.
Variant Y60Q+S107V showed ND, ND, ND.
Variant L29D+Y60L+G61F showed ND, ND, ND.
Variant R57W+Y60H showed ND, ND, ND.
Variant I51N+Y60C+F105C showed ND, ND, ND.
Variant L29A+Y60G+T104K showed ND, ND, ND.
Variant L29C+Y60I showed ND, ND, ND.
Variant S31G+Y60D+D62I showed ND, ND, ND.
Variant N30I+Y60A+K65G showed ND, ND, ND.
Variant G55K+Y60Q showed ND, ND, ND.

The first 7 variants above that were never detected:

With T58R+Y60A+T104L the result was ND, ND, ND.
With G26H+G33C+Y60Q the result was ND, ND, ND.
With N30V+Y60I+S63A the result was ND, ND, ND.
With Y32H+Y60F+R100V the result was ND, ND, ND.
With Y60W+A101I the result was ND, ND, ND.
With N30V+Y60C+D106P the result was ND, ND, ND.
With G33S+Y60M+T104W the result was ND, ND, ND.